This note sets out measurements from US7541466B2, “Tetrahydroisoquinoline derivatives for treating protein trafficking diseases” (Genzyme Corporation, priority 2003, dated 2009).

Sequences of proteins named here, by UniProt entry; tags and fusion partners are left off. A line that says so, or that is headed by a name, gives the form on record, which may keep a tag or linker.
UniProt P13569, with tags, fused parts or gaps DEL508-508: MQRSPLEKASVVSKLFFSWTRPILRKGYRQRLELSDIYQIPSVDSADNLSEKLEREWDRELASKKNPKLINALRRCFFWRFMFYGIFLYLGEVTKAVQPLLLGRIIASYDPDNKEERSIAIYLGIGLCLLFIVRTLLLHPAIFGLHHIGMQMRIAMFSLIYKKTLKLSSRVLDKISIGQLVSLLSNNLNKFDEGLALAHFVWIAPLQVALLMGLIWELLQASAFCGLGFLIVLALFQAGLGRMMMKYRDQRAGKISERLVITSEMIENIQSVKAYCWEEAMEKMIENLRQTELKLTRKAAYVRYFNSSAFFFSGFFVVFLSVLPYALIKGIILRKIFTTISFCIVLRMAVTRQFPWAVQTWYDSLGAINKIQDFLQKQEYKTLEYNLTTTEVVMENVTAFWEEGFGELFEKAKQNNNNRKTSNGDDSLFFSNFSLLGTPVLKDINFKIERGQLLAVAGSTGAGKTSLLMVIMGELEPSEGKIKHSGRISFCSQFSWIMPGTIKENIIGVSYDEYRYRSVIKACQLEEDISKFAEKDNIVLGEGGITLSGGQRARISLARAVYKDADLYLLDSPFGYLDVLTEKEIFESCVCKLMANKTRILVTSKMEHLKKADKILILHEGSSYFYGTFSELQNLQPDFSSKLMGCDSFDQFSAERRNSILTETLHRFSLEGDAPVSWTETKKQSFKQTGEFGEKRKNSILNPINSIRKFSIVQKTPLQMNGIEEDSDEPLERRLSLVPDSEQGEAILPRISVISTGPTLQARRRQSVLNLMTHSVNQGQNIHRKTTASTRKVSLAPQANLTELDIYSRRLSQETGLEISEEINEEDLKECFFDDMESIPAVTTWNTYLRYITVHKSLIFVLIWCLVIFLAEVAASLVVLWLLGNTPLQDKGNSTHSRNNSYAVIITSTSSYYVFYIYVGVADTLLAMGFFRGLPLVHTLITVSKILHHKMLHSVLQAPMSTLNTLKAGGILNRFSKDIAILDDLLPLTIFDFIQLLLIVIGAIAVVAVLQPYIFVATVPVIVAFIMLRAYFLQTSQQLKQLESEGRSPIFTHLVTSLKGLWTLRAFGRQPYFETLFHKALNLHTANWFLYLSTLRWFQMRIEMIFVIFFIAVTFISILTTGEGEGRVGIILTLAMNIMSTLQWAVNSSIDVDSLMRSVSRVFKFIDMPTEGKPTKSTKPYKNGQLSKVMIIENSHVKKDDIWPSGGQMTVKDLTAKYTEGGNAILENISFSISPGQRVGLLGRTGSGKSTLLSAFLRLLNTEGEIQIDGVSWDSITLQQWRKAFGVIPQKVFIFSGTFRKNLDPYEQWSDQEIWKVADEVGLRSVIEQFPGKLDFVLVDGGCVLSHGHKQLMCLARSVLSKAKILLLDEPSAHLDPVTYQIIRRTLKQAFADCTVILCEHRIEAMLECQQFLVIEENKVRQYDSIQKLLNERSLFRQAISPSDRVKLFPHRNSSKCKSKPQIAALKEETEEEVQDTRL

The target of this test is ΔF508 CFTR (Homo sapiens, UniProt P13569, DEL508-508). The test can be described thus: MQAE chloride transport assay in C127 cells expressing ΔF508 CFTR. The test is classed as cell-based, murine. Particulars: for EC50: chloride transport activity, C127 ΔF508 CFTR cells, MQAE; for % of Maximal Response: plateau level in activity at high compound concentration, as a percentage of the low temperature response.

Usually EC50 stands for the concentration needed to bring the measured effect to its halfway point. In the case of `CCCCCc1ccc(NC(=O)[C@@H]2Cc3ccccc3CN2C(=O)c2cccc(O[C@H](C)CC)c2)cc1`, the EC50 turned out to be 8 nM and the “% of Maximal Response” value amounted to 84%.

As for `O=C(Nc1ccc(Cl)cc1)C1Cc2ccccc2CN1C(=O)c1cccc(Oc2ccc(Cl)cc2)c1` (racemic), the EC50 was found to be 340 nM and the “% of Maximal Response” value amounted to 72%.

As for `O=C(c1ccccc1)c1cccc(C(=O)N2Cc3ccccc3CC2C(=O)Nc2ccc(Cl)cc2)c1` (racemic), the EC50 is 250 nM and the “% of Maximal Response” value is 79%.

As to `O=C1c2ccccc2-c2ccc(C(=O)N3Cc4ccccc4CC3C(=O)Nc3ccc(Cl)cc3)cc21` (racemic), the EC50 was 260 nM and the “% of Maximal Response” value is 71%.
